Protein sequences, listed by entry. Tags and fused reporters are not part of them. Lines headed by an entry give the natural chain unless they say otherwise; changes in a name come on top.
UniProt P41145: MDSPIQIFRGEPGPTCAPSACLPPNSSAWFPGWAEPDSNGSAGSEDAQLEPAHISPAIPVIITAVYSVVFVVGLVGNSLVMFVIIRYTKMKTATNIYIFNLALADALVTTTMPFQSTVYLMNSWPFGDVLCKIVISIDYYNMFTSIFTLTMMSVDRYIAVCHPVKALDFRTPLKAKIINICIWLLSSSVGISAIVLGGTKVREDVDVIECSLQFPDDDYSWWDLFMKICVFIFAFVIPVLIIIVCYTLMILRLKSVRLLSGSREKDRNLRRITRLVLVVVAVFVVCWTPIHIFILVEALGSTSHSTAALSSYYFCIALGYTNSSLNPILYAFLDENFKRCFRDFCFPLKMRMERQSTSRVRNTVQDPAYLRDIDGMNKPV

In publication PMC8396344, “Palmitoylation of Prolactin-Releasing Peptide Increased Affinity for and Activation of the GPR10, NPFF-R2 and NPFF-R1 Receptors: In Vitro Study” (International Journal of Molecular Sciences, 2021):

Target: KOR (Homo sapiens, UniProt P41145)
Test: Beta-lactamase reporter gene assay (FRET), KOR
Format: cell-based
Conditions: read-out: KOR EC50; β-lactamase assay, agonist mode, CHO-K1 cells; mean ± SEM, 2–3 independent experiments in duplicates

(±)-trans-U-50488 methanesulfonate salt
EC50: 1.4 nM
